One series deals with mice. In words: Locomotor activity test (CNS effect). The class given is in vivo, mouse. Particulars: i.v.
Another series relates to Male SD/TAC rats. As to the kind of experiment: Assay for diuretic activity (standard diuresis test, metabolic cages). The series is classed as in vivo, rat. Particulars: for effect on diuresis (in words): discussion of the examples; for Lovest Dose at which increased diuresis is achieved nMol/kg. I.e. >1.5 IV: i.v.; for Lovest Dose at which increased diuresis is achieved nMol/kg. I.e. >1.5 IV / SC Dose at which max diuresis is achieved / Lovest Dose at which increased diuresis is achieved nMol/kg. I.e. >1.5 SC / PO Dose at which max diuresis is achieved / Lovest Dose at which increased diuresis is achieved nMol/kg. I.e. >1.5 PO: rats; for Lovest Dose at which increased diuresis is achieved nMol/kg. I.e. >1.5 IV / Lovest Dose at which increased diuresis is achieved nMol/kg. I.e. >1.5 SC / Lovest Dose at which increased diuresis is achieved nMol/kg. I.e. >1.5 PO: ratio >1.5; for SC Dose at which max diuresis is achieved / Lovest Dose at which increased diuresis is achieved nMol/kg. I.e. >1.5 SC / SC max effect.: s.c.; for SC max effect. / PO max effect.: ratio of urine from treated rats to vehicle control group, 1 is normal diuresis, NI = No increase (not greater than 1.5), max test dose 3000 nMol/kg; for PO Dose at which max diuresis is achieved / Lovest Dose at which increased diuresis is achieved nMol/kg. I.e. >1.5 PO / PO max effect.: p.o.

Sequences of proteins named here, by UniProt entry; tags and fusion partners are left off. A change or cut given only in a name is not applied to a line headed by its entry.
UniProt P41146: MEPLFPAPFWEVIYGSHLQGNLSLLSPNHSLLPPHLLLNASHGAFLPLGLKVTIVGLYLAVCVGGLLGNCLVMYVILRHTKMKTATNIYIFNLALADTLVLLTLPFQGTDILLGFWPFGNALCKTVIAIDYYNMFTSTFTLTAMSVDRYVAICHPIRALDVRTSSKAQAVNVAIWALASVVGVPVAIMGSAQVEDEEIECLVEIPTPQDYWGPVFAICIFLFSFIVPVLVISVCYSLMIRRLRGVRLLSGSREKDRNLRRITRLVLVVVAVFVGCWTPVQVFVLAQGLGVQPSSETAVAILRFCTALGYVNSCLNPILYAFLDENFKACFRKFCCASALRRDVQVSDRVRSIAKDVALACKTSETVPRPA

The test system of a further series is male NMRI mice. As to the kind of experiment: Gridshock test (pain threshold, CNS effect). As to conditions: for observed effect after i.v. administration: nearly same effect as i.t. nociceptin.
Another series has as its target cloned hORL1 receptors (Homo sapiens, UniProt P41146). As to the kind of experiment: hORL1 receptor mediated inhibition of forskoline-induced cAMP formation in HEK293 cells. A general note: Changes in cAMP serve as a functional read-out for many G protein-coupled receptors.
The nature of series [1]: Oral bioavailability in Sprague-Dawley rats (i.v./p.o. bolus, plasma LC/MS/MS). As to conditions: for F % (oral bioavailability) / T½ min (half-life): Sprague-Dawley rats; for F % (oral bioavailability): i.v. and p.o. bolus, cross-over, two rats, non-compartmental, Compound 40 and 11 values guidance only (corrected by factor 0.14); for T½ min (half-life): non-compartmental analysis; for oral availability (in words): discussion of the examples.

Where “and” joins values, the source holds several entries; their conditions need not be identical. Equal entries are not always repeated.

Regarding `CC(C)[C@H]1CC[C@@H](N2CCC3(CC2)C(=O)N(CCCCCCCCCN2CCCNCCNCCCNCC2)CN3c2ccccc2)CC1` (relative stereo), the “CNS motility* (Minimal effective dose nmol/kg)” value (“CNS motility*” for short) in the series with mice was <1000 nmol/kg. For the same molecule, in the series on Male SD/TAC rats, the “effect on diuresis (in words)” value was “significantly increase diuresis”, the “Lovest Dose at which increased diuresis is achieved nMol/kg. I.e. >1.5 IV” value is 100 nmol/kg, the “SC Dose at which max diuresis is achieved” value (“SC Dose” below) is 1000 nmol/kg and the “Lovest Dose at which increased diuresis is achieved nMol/kg. I.e. >1.5 SC” value came out at 100 nmol/kg. Moreover, the SC max effect. in the series with Male SD/TAC rats was determined as 3.3. Further, in the series with male NMRI mice (i.v.), the “CNS grid shock* (Minimal effective dose nmol/kg)” value (“CNS grid shock*” for short) came out at 3000 nmol/kg and the “dose at which the mice died after injection” value (from here on “dose at which the mice died”) is listed as 10000 nmol/kg. For the same molecule, in the series with male NMRI mice, the “observed effect after i.v. administration” value (shortened to “observed effect”) is recorded as “analgesia”.
`CC(C)[C@H]1CC[C@@H](N2CCC3(CC2)C(=O)N(CCCCCCN)CN3c2ccccc2)CC1` (relative stereo): at cloned hORL1 receptors, the “agonism in efficacy assay” value is “full agonism”.
`CC(C)C1CCC(N2CCC3(CC2)C(=O)NCN3c2ccccc2)CC1` (stereo not drawn): in series [1], the “F % (oral bioavailability)” value is listed as 4 ± 0.3% and the “T½ min (half-life)” value is on record as 36 min. The “CNS motility*” value with mice worked out at 300 nmol/kg. The “dose with statistical significant decrease in locomotor activity from 15-30 minutes” value in the series with mice (foreign cage) was 1000 nmol/kg and 2000 nmol/kg. In addition, in the series on mice (foreign cage, p<0.05), the “dose with statistical significant increase in locomotor activity during the last 30 minutes” value was 1000 nmol/kg. Also, in the series on Male SD/TAC rats, the “Lovest Dose at which increased diuresis is achieved nMol/kg. I.e. >1.5 IV” value worked out at 1000 nmol/kg, the “SC Dose” value came out at 3000 nmol/kg, the “Lovest Dose at which increased diuresis is achieved nMol/kg. I.e. >1.5 SC” value stood at 1000 nmol/kg and the SC max effect. was 3.3. Moreover, in the series on male NMRI mice (i.v.), the “CNS grid shock*” value is on record as 300 nmol/kg and the “dose after which the mice were highly sedated (test worthless)” value came out at 3000 nmol/kg.
Take `CNCCCCCCN1CN(c2ccccc2)C2(CCN([C@H]3CC[C@@H](C(C)C)CC3)CC2)C1=O` (relative stereo): on cloned hORL1 receptors, the “agonism in efficacy assay” value is on record as “full agonism”. In the series with Male SD/TAC rats, the “SC Dose” value turned out to be 3000 nmol/kg, the “Lovest Dose at which increased diuresis is achieved nMol/kg. I.e. >1.5 SC” value amounted to 3000 nmol/kg and the SC max effect. turned out to be 2.2.
Regarding “cis-3-(7-Aminoethyl-4,7,10-triazadecan)-8-(4-isopropyl-cyclohexyl)-1-phenyl-1,3,8-triaza-spiro[4.5]decan-4-one”, in series [1], the “F % (oral bioavailability)” value is recorded as <1%, the “T½ min (half-life)” value was found to be 45 min and the “oral availability (in words)” value is reported as “orally available”. Moreover, the “CNS motility*” value with mice is <300 nmol/kg. The “agonism in efficacy assay” value on cloned hORL1 receptors is “full agonism”. Also, in the series on Male SD/TAC rats, the “effect on diuresis (in words)” value is on record as “significantly increase diuresis”, the “Lovest Dose at which increased diuresis is achieved nMol/kg. I.e. >1.5 IV” value was determined as 10 nmol/kg, the “PO Dose at which max diuresis is achieved” value (from here on “PO Dose”) was found to be 3000 nmol/kg and the “Lovest Dose at which increased diuresis is achieved nMol/kg. I.e. >1.5 PO” value was determined as 1000 nmol/kg. Besides, in the series with Male SD/TAC rats, the PO max effect. is on record as 1.9, the “SC Dose” value is 1000 nmol/kg, the “Lovest Dose at which increased diuresis is achieved nMol/kg. I.e. >1.5 SC” value came to 10 nmol/kg and the SC max effect. was determined as 4.8. In addition, in the series with male NMRI mice (i.v.), the “CNS grid shock*” value is given as <100 nmol/kg and the “dose at which the mice died” value was found to be 2e+09 nmol/kg. In the series with male NMRI mice (i.v., at the lethal dose stated for the compound), the “time to death after injection” value is “approximately 1 minutes”. For the same molecule, the “dose at which statistical significant analgesia was observed at 15 and 30 minutes” value in the series with male NMRI mice (i.v., gridshock, at 15 and 30 minutes) is 1000 nmol/kg. Moreover, the “observed effect” value in the series with male NMRI mice is listed as “analgesia”.
For the molecule “cis-3-(13-Aminoethyl-10,13,16-triazahexadecan)-8-(4-isopropyl-cyclohexyl)-1-phenyl-1,3,8-triaza-spiro[4.5]decan-4-one”, the “agonism in efficacy assay” value on cloned hORL1 receptors is given as “full agonism”. For the same molecule, in the series with Male SD/TAC rats, the “SC Dose” value is 100 nmol/kg, the “Lovest Dose at which increased diuresis is achieved nMol/kg. I.e. >1.5 SC” value is 10 nmol/kg and the SC max effect. was determined as 4.4.
In the case of “cis-3-(10-Aminoethyl-7,10,13-triazamidecan)-8-(4-isopropyl-cyclohexyl)-1-phenyl-1,3,8-triaza-spiro[4.5]decan-4-one”, the “oral availability (in words)” value in series [1] is given as “orally available”. For the same molecule, on cloned hORL1 receptors, the “agonism in efficacy assay” value is on record as “full agonism”. Further, the “effect on diuresis (in words)” value in the series on Male SD/TAC rats is given as “significantly increase diuresis”.
“cis-3-N-(6-Methylaminohexyl)-(6-methylaminohexyl)-8-(4-isopropyl-cyclohexyl)-1-phenyl-1,3,8-triaza-spiro[4.5]decan-4-one”: the “agonism in efficacy assay” value on cloned hORL1 receptors is reported as “full agonism”. Moreover, in the series on Male SD/TAC rats, the “SC Dose” value is 100 nmol/kg, the “Lovest Dose at which increased diuresis is achieved nMol/kg. I.e. >1.5 SC” value was 100 nmol/kg and the SC max effect. is recorded as 2.5.
Regarding `CC(C)[C@H]1CC[C@@H](N2CCC3(CC2)C(=O)N(CCCCCCCCCN(C)C)CN3c2ccccc2)CC1` (relative stereo), the “CNS motility*” value in the series with mice worked out at 3000 nmol/kg. The “dose with statistical significant decrease in locomotor activity during the first 30 minutes” value in the series on mice (foreign cage, p<0.05) was 10000 nmol/kg. In the series with Male SD/TAC rats, the “Lovest Dose at which increased diuresis is achieved nMol/kg. I.e. >1.5 IV” value stood at 1 nmol/kg, the “Lovest Dose at which increased diuresis is achieved nMol/kg. I.e. >1.5 PO” value was 100 nmol/kg and the PO max effect. amounted to 2.3. Also, in the series with male NMRI mice (i.v.), the “CNS grid shock*” value is reported as 3000 nmol/kg and the “dose at which the mice died” value came to 30000 nmol/kg. Further, the “observed effect” value in the series with male NMRI mice is reported as “analgesia”.
For the molecule `CC(C)[C@H]1CC[C@@H](N2CCC3(CC2)C(=O)N(CCCCCCN(C)C)CN3c2ccccc2)CC1` (relative stereo), the “agonism in efficacy assay” value at cloned hORL1 receptors is “full agonism”.
Regarding `CC(C)[C@H]1CC[C@@H](N2CCC3(CC2)C(=O)N(CCCN(C)C)CN3c2ccccc2)CC1` (relative stereo), on cloned hORL1 receptors, the “agonism in efficacy assay” value is reported as “full agonism”.
“trans-3-(13-Aminoethyl-10,13,16-triazahexadecan)-8-(4-isopropyl-cyclohexyl)-1-phenyl-1,3,8-triaza-spiro[4.5]decan-4-one”: the “agonism in efficacy assay” value at cloned hORL1 receptors was “full agonism”. Moreover, in the series on Male SD/TAC rats, the “SC Dose” value was 100 nmol/kg, the “Lovest Dose at which increased diuresis is achieved nMol/kg. I.e. >1.5 SC” value came out at 100 nmol/kg and the SC max effect. is reported as 2.5.
For `CC(C)[C@H]1CC[C@@H](N2CCC3(CC2)C(=O)N(CCCCCCCCCNCCNCCNCCNCCN)CN3c2ccccc2)CC1` (relative stereo), in series [1], the “F % (oral bioavailability)” value was <1% and the “T½ min (half-life)” value is listed as 225 min. Also, the “CNS motility*” value in the series with mice turned out to be 300 nmol/kg. Also, in the series with mice (foreign cage, p<0.05), the “dose with statistical significant decrease in locomotor activity during the first 30 minutes” value turned out to be 1000 nmol/kg. Further, at cloned hORL1 receptors, the “agonism in efficacy assay” value is on record as “full agonism”. Also, in the series with Male SD/TAC rats, the “Lovest Dose at which increased diuresis is achieved nMol/kg. I.e. >1.5 IV” value is 100 nmol/kg, the “PO Dose” value was determined as 300 nmol/kg, the “Lovest Dose at which increased diuresis is achieved nMol/kg. I.e. >1.5 PO” value came to 300 nmol/kg and the PO max effect. is 1.8. In the series with Male SD/TAC rats, the “SC Dose” value was 300 nmol/kg, the “Lovest Dose at which increased diuresis is achieved nMol/kg. I.e. >1.5 SC” value stood at 30 nmol/kg and the SC max effect. was 3.3. In the series on male NMRI mice (i.v.), the “CNS grid shock*” value was determined as 100 nmol/kg and the “dose at which the mice died” value was found to be 2e+09 nmol/kg. Moreover, the “observed effect” value with male NMRI mice is “analgesia”.
Consider `CC(C)[C@H]1CC[C@@H](N2CCC3(CC2)C(=O)N(CCCN)CN3c2ccccc2)CC1` (relative stereo), for which, on cloned hORL1 receptors, the “agonism in efficacy assay” value is “full agonism”. In addition, in the series on Male SD/TAC rats, the “PO Dose” value was found to be 1000 nmol/kg, the “Lovest Dose at which increased diuresis is achieved nMol/kg. I.e. >1.5 PO” value was determined as 1000 nmol/kg, the PO max effect. worked out at 1.9 and the “SC Dose” value worked out at 3000 nmol/kg. Besides, in the series on Male SD/TAC rats, the “Lovest Dose at which increased diuresis is achieved nMol/kg. I.e. >1.5 SC” value worked out at 1000 nmol/kg and the SC max effect. was 2.5.

These data come from patent US20080287478A1 (priority 2003, published 2008).
